Test [1] has as its target T1, Dihydrofolate reductase (Mus musculus, UniProt P00375).
T1 sequence (P00375 whole entry): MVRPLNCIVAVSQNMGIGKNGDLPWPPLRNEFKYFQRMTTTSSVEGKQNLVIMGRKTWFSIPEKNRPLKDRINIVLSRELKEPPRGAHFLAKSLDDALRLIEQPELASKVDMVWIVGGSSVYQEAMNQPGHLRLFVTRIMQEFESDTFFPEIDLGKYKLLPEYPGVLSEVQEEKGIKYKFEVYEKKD
In words: Inhibitory constant for murine Wild-type dihydrofolate reductase (DHFR).

Test [2] has as its target T1, Dihydrofolate reductase. In words: Inhibitory constant for F31A/F34A murine dihydrofolate reductase (DHFR).

`Nc1nc(N)c2nc(CNc3ccc(C(=O)NC(CCCNC(=O)c4ccccc4C(=O)O)C(=O)O)cc3)cnc2n1` (configuration not stated): the Ki is 0.042 nM on Dihydrofolate reductase [1] and 25.9 nM on Dihydrofolate reductase [2].

The Ki is the dissociation constant of the complex between target and ligand, obtained from inhibition or displacement. High values mean weaker binding, low ones tighter binding.

For the origin of these results see ChEMBL document CHEMBL1145821, “Dihydrofolate reductase mutant with exceptional resistance to methotrexate but not to trimetrexate” (J Med Chem, 2003).
